The values below come from patent US9566330B2, “Immunogenic composition for immune system modulation and use thereof, method for treating and preventing diseases, method for inducing cell regeneration and method for restoring immune response” (priority 2011, dated 2017).

One series relates to B16-F10 melanoma cells. To be noted: DECA-IL-2 group, IL-2 20,000 UI twice a day.
For series [1] the following is noted: high dosage (600,000-720,000 UI/Kg) in clinical practice; cited from earlier work.

With IL-2: Interleukin-2, in the series with B16-F10 melanoma cells, the “tolerance to the repeated treatment with IL-2” value is on record as “good tolerance”. For the same substance, the toxic symptoms observed result in series [1] is listed as “comparable to the induction of a controlled state of septic shock”.
